Assays:
[1] = biological target: Natural full-length AAT from human serum, P01009
[2] = biological target: AAT derived from transduced MSCs (human Alpha-1 antitrypsin expressed from genetically modified primary human MSCs, in cell culture supernatant), P01009

Amino acid sequences for entries named in this document (tags omitted).
Natural full-length AAT from human serum, P01009, UniProt P01009, whole entry, looked up: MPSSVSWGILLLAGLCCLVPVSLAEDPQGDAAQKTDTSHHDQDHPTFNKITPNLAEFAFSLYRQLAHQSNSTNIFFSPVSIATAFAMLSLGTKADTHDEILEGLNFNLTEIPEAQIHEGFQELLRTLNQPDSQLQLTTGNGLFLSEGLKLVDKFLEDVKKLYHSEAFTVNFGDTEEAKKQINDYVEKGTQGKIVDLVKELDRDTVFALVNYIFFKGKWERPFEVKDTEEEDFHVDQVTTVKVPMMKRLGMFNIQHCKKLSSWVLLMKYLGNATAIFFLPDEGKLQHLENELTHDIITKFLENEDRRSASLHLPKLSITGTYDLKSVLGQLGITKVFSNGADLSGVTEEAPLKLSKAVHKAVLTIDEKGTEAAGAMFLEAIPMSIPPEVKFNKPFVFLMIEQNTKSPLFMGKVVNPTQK

B1: neutrophil elastase (protein)
chain: IVGGRRARPHAWPFMVSLQLRGGHFCGATLIAPNFVMSAAHCVANVNVRAVRVVLGAHNLSRREPTRQVFAVQRIFENGYDPVNLLNDIVILQLNGSATINANVQVAQLPAQGRRLGNGVQCLAMGWGLLGRNRGIASVLQELNVTVVTSLCRRSNVCTLVRGRQAGVCFGDSGSPLVCNGLIHGIASFVRGGCASGLYPDAFAPVAQFVNWIDSIIQ
[1]
  RFU output from hydrolyzation of a fluorescent elastase substrate (neutrophil elastase activity): AAT derived from transduced MSCs and from human plasma is equally potent in inhibiting neutrophil elastase
[2]
  RFU output from hydrolyzation of a fluorescent elastase substrate (neutrophil elastase activity): AAT derived from transduced MSCs and from human plasma is equally potent in inhibiting neutrophil elastase
